Reference: the NIST ThermoML archive (doi:10.1016/j.jct.2013.01.005)

Assay: activity coefficient (dimensionless); of the first substance listed, at infinite dilution; xn = mol fraction of the nth substance listed
Settings: 101 kPa, Liquid, Chromatography, x1 = 0

Structure (SMILES)	activity coefficient (308.15 K)	activity coefficient (318.15 K)	activity coefficient (328.15 K)	activity coefficient (338.15 K)	activity coefficient (348.15 K)	activity coefficient (358.15 K)
CCCCOCCCC [dibutyl ether] + CCCCCC[N+]1(C)CCCCC1.O=S(=O)([N-]S(=O)(=O)C(F)(F)F)C(F)(F)F	6.38 ± 0.43	6.25 ± 0.43	6.08 ± 0.41	5.96 ± 0.41	5.81 ± 0.4	5.74 ± 0.39
CCCCOCCCC [dibutyl ether] + CCCCC[N+]1(C)CCCCC1.O=S(=O)([N-]S(=O)(=O)C(F)(F)F)C(F)(F)F	8.04 ± 0.55	7.79 ± 0.53	7.5 ± 0.51	7.29 ± 0.5	7.17 ± 0.49	6.94 ± 0.47

± gives the expanded uncertainty stated by the source.
